A short description of this data set: In vivo pharmacokinetics, plasma and brain. Also noted: species or system mice. The conditions noted are these: intravenous 13 mg/kg.

As for Echinacoside [Free ECH], for the setting “brain”, the AUC0-t was 0.017 ± 0.005 µg·h/g, the Cmax (commonly the maximum level reached in the sampled fluid or tissue) is 0.056 ± 0.027 µg/g, the MRT0-t amounted to 30.5 ± 5.7 min and the T1/2 is 33.7 ± 6.84 min. Also, under “plasma (as printed in text)”, the “area under the curve (AUC0-t)” value was 3.501 ± 0.733 µg·h/g. Where the note is “plasma”, the AUC0-t amounted to 3.501 ± 0.733 µg·h/mL, the Cmax was 12.422 ± 3.041 µg/mL, the MRT0-t amounted to 20.9 ± 0.18 min and the T1/2 was 22.8 ± 0.9 min.

The values above are taken from article PMC11342948 (International Journal of Nanomedicine, 2024).
